In PubChem BioAssay AID2057 (The Scripps Research Institute Molecular Screening Center, 2009) one finds inhibition data, which are given here for 2 compounds.

By UniProt entry, the sequences of proteins in these tests, tags left out.
UniProt Q07820, whole entry: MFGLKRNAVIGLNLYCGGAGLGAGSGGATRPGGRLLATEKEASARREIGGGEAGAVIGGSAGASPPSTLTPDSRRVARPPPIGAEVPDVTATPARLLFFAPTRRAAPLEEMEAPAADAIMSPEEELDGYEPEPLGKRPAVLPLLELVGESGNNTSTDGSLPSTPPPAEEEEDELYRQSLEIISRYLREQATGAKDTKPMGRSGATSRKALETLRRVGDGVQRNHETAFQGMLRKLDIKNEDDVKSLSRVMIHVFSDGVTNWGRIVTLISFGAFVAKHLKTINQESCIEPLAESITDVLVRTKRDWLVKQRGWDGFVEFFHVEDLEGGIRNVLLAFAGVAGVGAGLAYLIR

Each structure is given as a SMILES string. This is a selection; strong and weak results do not stand in their true shares. Activity calls are given as the source filed them.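 Rule for the calls: active = inhibition above the mean inhibition of all tested compounds plus 3 SD, set per campaign (cut at about 40% in these data); inactive = the rest.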

For the assay, the target named is Induced myeloid leukemia cell differentiation protein Mcl-1 (Homo sapiens) (UniProt Q07820). Kind of assay: inhibitors of MCL1 binding to BIM-BH3, primary screen, biochemical, fluorescence polarization (AID 2057).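 Note: 0% = DMSO wells and 100% = unlabeled Bim-BH3 peptide control; higher means more loss of mP so more displacement of Bim peptide.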 The conditions noted are these: GST-MCL1 / FITC-Bim-BH3 fluorescence polarization; at 10.9 µM; active compounds read high.
In the case of `COP1(=S)c2c(C)nn(CCC#N)c2N=C(c2ccc(F)cc2)N1C` (configuration not stated), the inhibition (as a rule, the drop in the measured response relative to a control, in per cent) is inactive: 4.71%.
For `CC(C)(C)C(=O)NC(Sc1ccncn1)C(Cl)(Cl)Cl` (configuration not stated), the inhibition is inactive: 9.03%.
